Assay results: patent US20200199102A1, “COMPOUNDS THAT PARTICIPATE IN COOPERATIVE BINDING AND USES THEREOF” (Revolution Medicines, Inc., priority 2017, published 2020)

Sequences of proteins named here, by UniProt entry; tags and fusion partners are left off.
UniProt P62937, whole entry, species assumed: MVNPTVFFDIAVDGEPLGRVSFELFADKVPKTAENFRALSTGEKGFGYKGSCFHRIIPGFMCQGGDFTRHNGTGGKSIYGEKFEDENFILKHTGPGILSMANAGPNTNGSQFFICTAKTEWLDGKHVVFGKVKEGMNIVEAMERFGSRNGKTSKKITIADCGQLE

The compounds below were run against T1, Cyclophilin A (Homo sapiens, UniProt P62937) (assay: AlphaLISA inhibition of binding of biotinylated Cyclosporin A to FLAG tagged Cyclophilin A). Conditions: test concentration not given.
T1 construct: made in house
Source text: The binding of compounds of the invention to Cyclophilin A can be determined using the following protocol.
This protocol utilizes Perkin Elmers AlphaLISA technology platform to detect cyclosporine analogues by measuring the inhibition of binding of biotinylated Cyclosporin A to FLAG tagged Cyclophilin A.
10×TBST Buffer (Boston BioProducts IBB-181), Biotinylated Cyclosporin A (in-house), FLAG tagged Cyclophilin A (in-house); anti-FLAG Donor beads (PerkinElmer AS103) and Streptavidin Acceptor beads (PerkinElmer AL125); Compounds in DMSO (in-house), Cyclosporin A (LC Labs Cat #C-6000).
Add 20 uL of 6 nM Biotinylated CsA working stock to each well of the 96-well plate. Add 1 uL of test compound (100% DMSO) to each well of the plate using the Janus MTD head and P20 tips (except control wells). Add 1 uL of DMSO to negative control wells and 1 uL of 500 uM Cyclosporin A solution to positive control wells. In the dark, add 20 uL of combined Donor/Acceptor beads to each well. Incubate in the dark for 30 minutes at room temperature. In the dark, add 10 uL of 25 nM Flag tagged CypA working stock to each well. Incubate in the dark for 60 minutes at room temperature. Protect plate from light until reading on Biotek Synergy2 Plate Reader; Alphalisa 96-well protocol (680 excitation/615 emission).

| % inhibition of CsA binding to Cyclophilin A [%] | SMILES |
| --- | --- |
| 90.64 | C/C=C/C[C@@H](C)[C@@H](O)[C@H]1C(=O)N[C@@H](CC)C(=O)N(C)CC(=O)N(C)[C@@H](CC(C)C)C(=O)N[C@@H](CC(C)C)C(=O)N(C)[C@@H](C)C(=O)N[C@@H](C)C(=O)N[C@H](C)C(=O)N(C)[C@@H](CC(C)C)C(=O)N(C)[C@@H](CC(C)C)C(=O)N(C)[C@@H](C(C)C)C(=O)N1C [Compound C14] |
| 97.88 | C/C=C/C[C@@H](C)[C@@H](O)[C@H]1C(=O)N[C@@H](CC)C(=O)N(C)CC(=O)N(C)[C@@H](C)C(=O)N[C@@H](C)C(=O)N(C)CC(=O)N[C@@H](C)C(=O)N[C@H](C)C(=O)N(C)[C@@H](CC(C)C)C(=O)N(C)[C@@H](CC(C)C)C(=O)N(C)[C@@H](C(C)C)C(=O)N1C [Compound C18] |
| 99.63 | C/C=C/C[C@@H](C)[C@@H](O)[C@H]1C(=O)N[C@@H](CC)C(=O)N(C)CC(=O)N(C)[C@@H]([C@@H](C)CC)C(=O)N[C@@H](C(C)C)C(=O)N(C)CC(=O)N[C@@H](C)C(=O)N[C@H](C)C(=O)N(C)[C@@H](CC(C)C)C(=O)N(C)[C@@H](CC(C)C)C(=O)N(C)[C@@H](C(C)C)C(=O)N1C [Compound C25] |
| 96.12 | C/C=C/C[C@@H](C)[C@@H](O)[C@H]1C(=O)N[C@@H](CC)C(=O)N(C)CC(=O)N(C)[C@@H]([C@@H](C)O)C(=O)N[C@@H](C(C)(C)C)C(=O)N(C)[C@@H](C)C(=O)N[C@@H](CC(C)C)C(=O)N[C@H](C)C(=O)N(C)[C@@H](CC(C)C)C(=O)N(C)[C@@H](CC(C)C)C(=O)N(C)[C@@H](C(C)C)C(=O)N1C [Compound C75] |
| 99.56 | C/C=C/C[C@@H](C)[C@@H](O)[C@H]1C(=O)N[C@@H](CC)C(=O)N(C)CC(=O)N(C)[C@@H](C(C)C)C(=O)N[C@@H](C(C)(C)C)C(=O)N(C)[C@@H](C)C(=O)N[C@@H](CC(C)C)C(=O)N[C@H](C)C(=O)N(C)[C@@H](CC(C)C)C(=O)N(C)[C@@H](CC(C)C)C(=O)N(C)[C@@H](C(C)C)C(=O)N1C [Compound C77] |
| 99.35 | C/C=C/C[C@@H](C)[C@@H](O)[C@H]1C(=O)N[C@@H](CC)C(=O)N(C)CC(=O)N(C)[C@H](C)C(=O)N[C@@H](C(C)C)C(=O)N(C)[C@@H](C)C(=O)N[C@@H](CC(C)C)C(=O)N[C@H](C)C(=O)N(C)[C@@H](CC(C)C)C(=O)N(C)[C@@H](CC(C)C)C(=O)N(C)[C@@H](C(C)C)C(=O)N1C [Compound C83] |
| 95.72 | C/C=C/C[C@@H](C)[C@@H](O)[C@H]1C(=O)N[C@@H](CC)C(=O)N(C)CC(=O)N(C)[C@@H](Cc2ccc(O)cc2)C(=O)N[C@@H](C(C)C)C(=O)N(C)[C@@H](CC(C)C)C(=O)N[C@@H](CC)C(=O)N[C@H](C)C(=O)N(C)[C@@H](CC(C)C)C(=O)N(C)[C@@H](CC(C)C)C(=O)N(C)[C@@H](C(C)C)C(=O)N1C [Compound C100] |
| 99.30 | C/C=C/C[C@@H](C)[C@@H](O)[C@H]1C(=O)N[C@@H](CC)C(=O)N(C)CC(=O)N(C)[C@@H](CCC)C(=O)N[C@@H](C(C)C)C(=O)N(C)[C@@H](CC(C)C)C(=O)N[C@@H](CC)C(=O)N[C@H](C)C(=O)N(C)[C@@H](CC(C)C)C(=O)N(C)[C@@H](CC(C)C)C(=O)N(C)[C@@H](C(C)C)C(=O)N1C [Compound C102] |
